Where two headings read alike, the source gives them in different places.
Biological target: Rat IL-23R (Rattus norvegicus, UniProt F1LX96)
Assay: Rat IL-23R Competitive Binding ELISA
[1] = read-out: Rat IL23/IL23R ELISA IC50, Table E3H

Chains of the proteins cited; added tags and fusions are not shown. Residues count along the entry.
UniProt F1LX96, 1-639: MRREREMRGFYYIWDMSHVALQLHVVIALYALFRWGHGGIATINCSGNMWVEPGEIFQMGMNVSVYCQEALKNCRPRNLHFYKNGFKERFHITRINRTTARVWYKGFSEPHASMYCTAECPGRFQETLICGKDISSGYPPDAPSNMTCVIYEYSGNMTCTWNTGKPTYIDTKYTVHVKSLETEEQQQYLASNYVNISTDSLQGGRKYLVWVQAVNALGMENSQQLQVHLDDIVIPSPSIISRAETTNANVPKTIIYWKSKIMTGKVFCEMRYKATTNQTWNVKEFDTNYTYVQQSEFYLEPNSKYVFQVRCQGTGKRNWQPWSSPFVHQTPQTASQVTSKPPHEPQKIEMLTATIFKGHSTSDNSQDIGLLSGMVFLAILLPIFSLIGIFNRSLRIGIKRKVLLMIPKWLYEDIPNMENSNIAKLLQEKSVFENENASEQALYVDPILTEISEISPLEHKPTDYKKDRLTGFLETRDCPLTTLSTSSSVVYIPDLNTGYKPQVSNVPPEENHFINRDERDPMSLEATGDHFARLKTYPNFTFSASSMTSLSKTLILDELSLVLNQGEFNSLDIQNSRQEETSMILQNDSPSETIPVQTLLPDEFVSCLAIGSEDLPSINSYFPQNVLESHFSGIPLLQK

Row | SMILES | IC50 (read-out: Rat ELISA IL23/IL23R) | further results
1 | CC(=O)N[C@H]1CSSC[C@@H](C(=O)N[C@@H](Cc2ccc(O)cc2)C(=O)N[C@@H](Cc2c[nH]c3ccccc23)C(=O)N[C@@H](CCCNC(=N)N)C(=O)N[C@H](C(=O)N[C@@H](Cc2ccccc2)C(=O)NCC(=O)NCCOCC(=O)N[C@H](CCCCN)C(N)=O)C(C)C)NC(=O)[C@H](CCC(N)=O)NC(=O)[C@H](Cc2c[nH]c3ccccc23)NC(=O)[C@H]([C@@H](C)O)NC(=O)[C@H](CCC(N)=O)NC1=O | 62 nM | –
2 | CC(=O)N[C@H]1CSSC[C@@H](C(=O)N[C@@H](Cc2ccc(O)cc2)C(=O)N[C@@H](Cc2c[nH]c3ccccc23)C(=O)NC(C)(C)C(=O)N[C@@H](CCC(=O)O)C(=O)N[C@@H](CC(N)=O)C(=O)NCC(N)=O)NC(=O)[C@H](CCC(N)=O)NC(=O)[C@H](Cc2c[nH]c3ccccc23)NC(=O)[C@H]([C@@H](C)O)NC(=O)[C@H](CCC(N)=O)NC1=O | – | IC50 [1]: 34 nM
3 | CC(=O)N[C@H]1CSSC[C@@H](C(=O)N[C@@H](Cc2cccc3ccccc23)C(=O)N[C@@H](Cc2ccc3ccccc3c2)C(=O)N[C@@H](CCC(C)C)C(=O)N[C@@H](CCC(=O)O)C(=O)N[C@@H](CC(N)=O)C(=O)NCC(N)=O)NC(=O)[C@H](CCC(N)=O)NC(=O)[C@H](Cc2c[nH]c3ccccc23)NC(=O)[C@H]([C@@H](C)O)NC(=O)[C@H](CCC(N)=O)NC1=O | – | IC50 [1]: 125 nM
4 | CC(=O)N[C@H]1CSSC[C@@H](C(=O)N[C@@H](Cc2ccc(O)cc2)C(=O)N[C@@H](Cc2c[nH]c3ccccc23)C(=O)N[C@@H](CCCNC(=N)N)C(=O)N[C@@H](CCCCN)C(=O)N[C@@H](Cc2ccccc2)C(=O)NCC(=O)NCCC(=O)N[C@H](CCCCN)C(N)=O)NC(=O)[C@H](C(C)C)NC(=O)[C@H](Cc2c[nH]c3ccccc23)NC(=O)[C@H](CC(=O)O)NC(=O)[C@H](C)NC1=O | 33 nM | –
5 | CC(=O)N[C@H]1CSSC[C@@H](C(=O)N[C@@H](Cc2ccc(O)cc2)C(=O)N[C@@H](Cc2c[nH]c3ccccc23)C(=O)N[C@@H](CCCN)C(=O)N[C@@H](CN)C(=O)N[C@@H](Cc2ccccc2)C(=O)NCC(=O)NCCOCC(=O)N[C@H](CCCCN)C(N)=O)NC(=O)[C@H](CCC(N)=O)NC(=O)[C@H](Cc2c[nH]c3ccccc23)NC(=O)[C@H]([C@@H](C)O)NC(=O)[C@H](CCC(N)=O)NC1=O | 276 nM | –
6 | CC(=O)NCCCC[C@H](NC(=O)[C@H](CCCCNC(=O)COCC(=O)NCCCC[C@H](NC(=O)[C@H](Cc1ccc2ccccc2c1)NC(=O)[C@H](Cc1ccc(OCCNC(C)=O)cc1)NC(=O)[C@H]1NC(=O)[C@H](CCC(N)=O)NC(=O)[C@H](Cc2c[nH]c3ccccc23)NC(=O)[C@H]([C@@H](C)O)NC(=O)[C@H](CCC(N)=O)NC(=O)[C@@H](NC(C)=O)C(C)(C)SSC1(C)C)C(=O)N[C@@H](CCCCNC(C)=O)C(=O)N[C@@H](CC(N)=O)C(=O)N[C@@H](CC(N)=O)C(N)=O)NC(=O)[C@H](Cc1ccc2ccccc2c1)NC(=O)[C@H](Cc1ccc(OCCNC(C)=O)cc1)NC(=O)[C@H]1NC(=O)[C@H](CCC(N)=O)NC(=O)[C@H](Cc2c[nH]c3ccccc23)NC(=O)[C@H]([C@@H](C)O)NC(=O)[C@H](CCC(N)=O)NC(=O)[C@@H](NC(C)=O)C(C)(C)SSC1(C)C)C(=O)N[C@@H](CC(N)=O)C(=O)N[C@@H](CC(N)=O)C(N)=O | – | IC50 (read-out: Rat ELISA, Pen-Pen dimers): 25 to 100 nM
7 | CC(=O)N[C@H]1CSSC[C@@H](C(=O)N[C@@H](Cc2ccc(O)cc2)C(=O)N[C@@H](Cc2c[nH]c3ccccc23)C(=O)N[C@@H](CCCNC(=N)N)C(=O)N[C@H](C(=O)N[C@@H](Cc2ccccc2)C(=O)NCC(=O)NCCOCC(=O)N[C@H](CCCCN)C(N)=O)C(C)C)NC(=O)[C@H](CCC(N)=O)NC(=O)[C@H](Cc2c[nH]c3ccccc23)NC(=O)[C@H]([C@@H](C)O)NC(=O)[C@H](CCCNC(N)=O)NC1=O | 76 nM | –
8 | CC(=O)N[C@H]1CSSC[C@@H](C(=O)N[C@@H](Cc2ccc(O)cc2)C(=O)N[C@@H](Cc2c[nH]c3ccccc23)C(=O)N[C@@H](CCCNC(=N)N)C(=O)N[C@H](C(=O)N[C@@H](Cc2ccccc2)C(=O)NCC(=O)NCCOCC(=O)N[C@H](CCCCN)C(N)=O)C(C)C)NC(=O)[C@H](CCC(N)=O)NC(=O)[C@H](Cc2c[nH]c3ccccc23)NC(=O)[C@H]([C@@H](C)O)NC(=O)[C@H](CCC(N)=O)N(C)C1=O | 85 nM | –
9 | CC(=O)N[C@@H]1C(=O)N[C@@H](CCCNC(=N)N)C(=O)N[C@@H]([C@@H](C)O)C(=O)N[C@@H](Cc2c[nH]c3ccccc23)C(=O)N[C@@H](CCC(N)=O)C(=O)N[C@H](C(=O)N[C@@H](Cc2ccc(O)cc2)C(=O)N[C@@H](Cc2c[nH]c3ccccc23)C(=O)N[C@@H](CCCNC(=N)N)C(=O)N[C@@H](CCCCN)C(=O)N[C@@H](Cc2ccccc2)C(=O)NCC(=O)NCCOCC(=O)N[C@H](CCCCN)C(N)=O)CSSC1(C)C | – | IC50 (read-out: Rat ELISA, Cys/Pen peptides): 100 to 1000 nM
10 | CC(=O)N[C@@H](CCCNC(=N)N)C(=O)N[C@@H]1CCSC[C@@H](C(=O)N[C@@H](Cc2ccc(OCCN)cc2)C(=O)N[C@@H](Cc2ccc3ccccc3c2)C(=O)NC2(C(=O)N[C@@H](CCC(=O)O)C(=O)N[C@@H](CC(N)=O)C(=O)N[C@@H](CC(N)=O)C(N)=O)CCOCC2)NC(=O)[C@H](CCC(N)=O)NC(=O)[C@H](Cc2c[nH]c3ccccc23)NC(=O)[C@H]([C@@H](C)O)NC(=O)[C@@H](CCC(N)=O)NC1=O | – | IC50 (read-out: ELISA (nM) Rat, IC50, IL-23/IL-23R competitive binding, rat): 2 nM

From patent publication US10787490B2
